Source: patent US10675286B2

Chains of the proteins cited; added tags and fusions are not shown.
UniProt P48736, whole entry: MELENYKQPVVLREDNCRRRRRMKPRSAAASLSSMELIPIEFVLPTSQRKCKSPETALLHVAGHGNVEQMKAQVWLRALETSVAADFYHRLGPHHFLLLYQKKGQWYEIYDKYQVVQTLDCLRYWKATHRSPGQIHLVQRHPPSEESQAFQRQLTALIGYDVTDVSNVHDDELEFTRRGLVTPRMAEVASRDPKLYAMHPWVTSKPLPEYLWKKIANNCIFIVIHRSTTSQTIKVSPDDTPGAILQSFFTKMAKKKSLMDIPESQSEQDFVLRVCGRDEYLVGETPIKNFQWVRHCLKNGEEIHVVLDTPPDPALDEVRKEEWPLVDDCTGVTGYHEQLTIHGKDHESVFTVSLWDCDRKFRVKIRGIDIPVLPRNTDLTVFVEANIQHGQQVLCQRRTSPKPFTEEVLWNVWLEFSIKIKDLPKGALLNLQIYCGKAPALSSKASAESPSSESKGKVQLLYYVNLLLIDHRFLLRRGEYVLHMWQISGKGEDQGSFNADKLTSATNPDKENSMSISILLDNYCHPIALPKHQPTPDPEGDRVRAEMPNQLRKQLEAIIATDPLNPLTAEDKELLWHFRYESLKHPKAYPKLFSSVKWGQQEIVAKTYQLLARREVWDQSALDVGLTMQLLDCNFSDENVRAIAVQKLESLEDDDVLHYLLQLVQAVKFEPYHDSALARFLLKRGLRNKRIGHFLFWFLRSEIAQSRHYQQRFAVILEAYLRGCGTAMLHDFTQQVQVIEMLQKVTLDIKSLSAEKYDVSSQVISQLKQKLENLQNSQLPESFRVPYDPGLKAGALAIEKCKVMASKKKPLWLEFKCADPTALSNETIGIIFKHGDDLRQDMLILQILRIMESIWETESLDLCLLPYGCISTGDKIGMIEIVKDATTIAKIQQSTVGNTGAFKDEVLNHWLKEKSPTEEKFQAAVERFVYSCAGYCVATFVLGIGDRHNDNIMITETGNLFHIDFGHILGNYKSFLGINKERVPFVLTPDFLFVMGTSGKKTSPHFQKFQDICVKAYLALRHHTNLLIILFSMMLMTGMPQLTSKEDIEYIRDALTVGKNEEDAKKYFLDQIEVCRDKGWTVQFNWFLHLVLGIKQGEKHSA

Biological target: PI3K γ (Homo sapiens (Human), UniProt P48736)
Test: PI3-Kinase Promega ADP-Glo Max assay, γ isoform
Assay type: biochemical

PI3K δ/PI3K γ IC50 (selectivity): X (X = 10 to <50)
SMILES: Cc1ccnc2c(C(=O)N[C@@H](C)c3cc4cccc(C#Cc5cnn(C)c5)c4c(=O)n3-c3ccccc3)c(N)nn12
